Measurements from US20220227827A1.

Target: Human IL10R1 (human) (UniProt Q13651)
Experiment: ELISA, human IL10R1 coated at 5 ug/mL, detection with goat anti-hIgG-HRP

Work on Erb-(IL10)2 (Fc fusion) yielded an EC50 of 2.94 ng/mL.
